Literature values, collected in patent publication US20070101461A1, “Method for Improving Phytoremediation Treatment of a Contaminated Medium” (priority 2001, published 2007).
This is a selection: effects in other tests are not listed, and their absence says nothing.

Tested on: plant
Settings: cited from earlier work

Cc1c([N+](=O)[O-])cc([N+](=O)[O-])cc1[N+](=O)[O-]
Fate in plant (toxic, build up, or volatile): Toxic, degraded to
